These results are taken from ChEMBL document CHEMBL4725427, “Synthesis and SAR Studies of 1H-Pyrrolo[2,3-b]pyridine-2-carboxamides as Phosphodiesterase 4B (PDE4B) Inhibitors” (ACS Med Chem Lett, 2020).

Chains of the proteins cited; added tags and fusions are not shown. Lines headed by an entry give the natural chain unless they say otherwise; changes in a name come on top.
UniProt Q08499: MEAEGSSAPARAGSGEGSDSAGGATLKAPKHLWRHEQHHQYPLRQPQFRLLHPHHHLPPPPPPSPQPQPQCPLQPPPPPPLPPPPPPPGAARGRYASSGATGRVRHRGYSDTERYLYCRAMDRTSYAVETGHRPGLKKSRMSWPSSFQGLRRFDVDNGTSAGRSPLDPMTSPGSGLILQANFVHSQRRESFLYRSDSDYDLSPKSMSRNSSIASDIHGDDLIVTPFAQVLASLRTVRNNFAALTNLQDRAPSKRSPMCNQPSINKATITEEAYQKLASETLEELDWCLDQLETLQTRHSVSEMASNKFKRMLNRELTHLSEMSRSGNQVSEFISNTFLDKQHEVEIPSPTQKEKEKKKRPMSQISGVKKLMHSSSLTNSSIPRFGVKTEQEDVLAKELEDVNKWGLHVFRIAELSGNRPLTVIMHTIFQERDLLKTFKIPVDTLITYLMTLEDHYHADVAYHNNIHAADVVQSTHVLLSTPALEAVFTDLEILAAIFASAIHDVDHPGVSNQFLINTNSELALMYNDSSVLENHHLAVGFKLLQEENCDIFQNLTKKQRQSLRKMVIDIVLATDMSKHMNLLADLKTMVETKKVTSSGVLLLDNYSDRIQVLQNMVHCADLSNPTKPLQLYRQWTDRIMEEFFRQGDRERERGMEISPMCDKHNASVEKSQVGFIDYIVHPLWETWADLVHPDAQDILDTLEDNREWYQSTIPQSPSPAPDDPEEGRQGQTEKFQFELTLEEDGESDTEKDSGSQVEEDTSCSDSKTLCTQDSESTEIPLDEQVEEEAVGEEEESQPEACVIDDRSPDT

As usually defined, the IC50 is the concentration needed to halve the response being measured. High values mean a need for much substance, low ones inhibition by little substance.

Structures are written as SMILES.

The experiment deals with 3',5'-cyclic-AMP phosphodiesterase 4D (Homo sapiens, UniProt Q08499). In words: biochemical. The experiment is classed as cell-based, Sf9.
As for `O=C(c1cc2cccnc2n1-c1ccnc(F)c1)N1CC(F)C1`, the IC50 is 1.9 µM.
For `O=C(c1nc2ccccc2n1-c1ccc(Cl)c(Cl)c1)N1CC(F)C1`, the IC50 amounted to 2 µM.
The same measure for `O=C(c1nc2cccnc2n1-c1ccc(Cl)c(Cl)c1)N1CCC1`: 0.45 µM.
Then `O=C(c1nc2cccnc2n1-c1ccc(Cl)c(Cl)c1)N1CC(F)(F)C1`, with 0.88 µM.
Then `COc1c(F)cc(-n2c(C(=O)N3CC(F)C3)cc3cccnc32)cc1F`, with 6.3 µM.
